The entries are a selection whose mix differs from that of the whole data set. The source made the active and inactive calls.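 The calls were made as follows: active = over half of replicate activation scores above 10%, or exactly half above 10 with the replicate mean above 10; inconclusive = replicate mean below 10 yet half the replicates above 10; inactive = over half of replicates below 10.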
Assay: inducers of caspase signal in A1-primed MEFs – cell-based, luminescence, HTS, A1 inhibitor project, primary screen (AID 2462)
Conditions: MEF A1-2A-BIM cells, Caspase-Glo 3/7 luminescence, 3 h; hits give high values; percent of clofoctol response, vehicle zero; concentration not given here

| Structure (SMILES) | caspase activation |
| --- | --- |
| CN1CCC(Nc2cccc(F)c2)CC1 | inactive: 0.266% |
| O=C(NCC1(N2CCCCC2)CCCCC1)c1cncc(Br)c1 | inactive: -0.165% |
| COc1cc(OC)c(C(=O)NCC2(N(C)C)CCCCC2)cc1OC | inactive: 0.446% |
| O=C(NCC1(N2CCOCC2)CCCCC1)c1cc(F)c(F)cc1Cl | inactive: -1.56% |
| CC(C)c1ccc(NC2CCN(C(=O)OC(C)(C)C)CC2)cc1 | inactive: -0.419% |
| COc1ccc(CN(CCCl)CCCl)cc1Cl | inactive: -0.592% |
| CN(C)c1cccc(C(=O)NCC2(N3CCCCC3)CCCCC2)c1 | inactive: 1.22% |
| O=C(NCC1(N2CCOCC2)CCCCC1)c1cc(=O)[nH]c2ccccc12 | inactive: -0.264% |
| COc1cc(C(=O)NCC2(N3CCCCC3)CCCCC2)ccc1OC(F)F | inactive: 0.233% |
| COc1ccc(NC2CCN(C(=O)OC(C)(C)C)CC2)cc1 | inactive: -0.49% |
| CN1CCN(CCOC(=O)C(O)(c2ccccc2)c2ccccc2)CC1 | inactive: 0.942% |
| O=C(NCC1(N2CCCCC2)CCCCC1)c1cccc(C(F)(F)F)c1 | inactive: -0.192% |
| CCN1CCC(Nc2ccc(Cl)cc2)CC1 | inactive: -7.63% |
| N#CC1(Nc2ccccc2)CCN(CCc2ccccc2)CC1 | inactive: 0.452% |
| O=C(NCC1(N2CCCCC2)CCCCC1)c1cccc([N+](=O)[O-])c1 | inactive: 0.37% |
| O=C(NCC1(N2CCCCC2)CCCCC1)c1ccc(OC(F)F)cc1 | inactive: 0.143% |
| COc1cc(C(=O)NCC2(N(C)C)CCCCC2)ccc1OC(F)F | inactive: 0.992% |
| Cc1ccc(OCC(C)C)c(CN(CCCl)CCCl)c1 | inactive: 1.55% |

| Structure (SMILES) | caspase activation |
| --- | --- |
| O=C(NCC1(N2CCCCC2)CCCCC1)c1ccc(F)cc1 | inactive: 0.182% |
| CCOC(=O)N1CCC(Nc2ccc(F)cc2)CC1 | inactive: 0.614% |
| COc1ccc(NC2CCN(CCc3ccccc3)CC2)c(OC)c1 | inactive: 0.349% |
| CCOc1ccc(C)cc1CN(CCCl)CCCl | inactive: 1.83% |
| N#CC1(Nc2ccccc2)CCN(Cc2ccccc2)CC1 | inactive: 0.117% |
| O=C(NCC1(N2CCCCC2)CCCCC1)c1ccc(Cl)s1 | inactive: 0.383% |
| O=C(OC1CN2CCC1CC2)C1c2ccccc2Oc2ccccc21 (stereo unspecified) | inactive: 0.701% |
| COc1ccc(Cl)cc1C(=O)NCC1(N2CCOCC2)CCCCC1 | inactive: -0.112% |
| CCOC(=O)N1CCC(Nc2ccc(OC)cc2)CC1 | inactive: 0.111% |
| O=C(NCC1(N2CCCCC2)CCCCC1)c1ccc(Cl)nc1 | inactive: -0.65% |
| Cc1cc(C)cc(N(C(=O)c2ccccc2)C2CCN(C(=O)OC(C)(C)C)CC2)c1 | inactive: 1.23% |
| O=C(NCC1(N2CCOCC2)CCCCC1)c1cc2ccccc2o1 | inactive: -0.557% |
| CSc1ccccc1C(=O)NCC1(N2CCCCC2)CCCCC1 | inactive: 0.35% |
| COc1ccc(C(=O)NCC2(N3CCCCC3)CCCCC2)cc1 | inactive: -0.379% |
| CC(C)(C)OC(=O)N1CCC(N(C(=O)c2ccccc2)c2ccc(F)cc2)CC1 | inactive: 0.716% |
| COc1ccc(C(=O)NCC2(N3CCCCC3)CCCCC2)c(OC)c1OC | inactive: 1.22% |
| O=C(NCC1(N2CCCCC2)CCCCC1)c1ccc(=O)[nH]c1 | inactive: 0.473% |
| O=C(NCC1(N2CCCCC2)CCCCC1)c1cccs1 | inactive: 1.09% |

Reference: PubChem BioAssay AID2462 (Broad Institute, 2010)
